# Measured values from US11952365B2, “Anti-viral compounds” (Aligos Therapeutics, Inc., priority 2020, dated 2024).
# The chains behind the UniProt entries cited, without tags or fusion partners. Residues count along the entry.
# UniProt P07711, 114-333 limits assumed: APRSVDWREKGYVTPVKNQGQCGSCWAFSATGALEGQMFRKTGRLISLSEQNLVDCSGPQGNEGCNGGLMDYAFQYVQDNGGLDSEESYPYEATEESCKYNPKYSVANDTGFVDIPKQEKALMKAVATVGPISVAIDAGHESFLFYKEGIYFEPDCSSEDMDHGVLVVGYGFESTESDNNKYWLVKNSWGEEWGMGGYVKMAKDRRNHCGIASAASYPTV
# What was measured:
# [1] = molecular target: human cathepsin L (Homo sapiens, UniProt P07711); experiment: cathepsin L assay; assay type: biochemical; conditions: read-out: Cathepsin L IC50; 10 pM human cathepsin L, Z-FR-AMC 2 μM, class symbols
# Procedure: For the cathepsin L assay, 10 pM of human cathepsin L (R&D Systems; Minneapolis, MN) was preincubated for 30 mins with test compounds. Reactions were initiated by the addition of a peptide substrate Z-FR-AMC (final concentration 2 μM, Anaspec; Fremont, CA). Fluorescence was measured at 2-minute intervals for 30 mins using a 355/460 excitation/emission filter module on an Envision plate reader (Perkin Elmer; Waltham, MA). The IC50 values were calculated for each assay by fitting the curves using a four-parameter equation in GraphPad Prism.
# [2] = test system: HeLa cells; experiment: Cytotoxicity plates without OC43 virus (cell-titer-glo); conditions: class symbols
# [3] = test system: Huh7 cells; experiment: Compound-specific side effects on Huh7 cell viability (MTS)
# [4] = test system: Vero E6-eGFP cells; experiment: Toxicity of compounds in the absence of virus (MTS-assay)
# [5] = read-out: Huh-7 (CC50), class symbols
# [6] = read-out: Huh-7 (CC50), numeric bounds
# [7] = read-out: VeroE6 + CP (CC50), Vero E6-eGFP cells with CP-100356, absence of virus, class symbols
Structure (SMILES),IC50 [1] [µM],CC50 [2] [µM],"CC50 [3, 5] [µM]","CC50 ([4]; read-out: VeroE6 + CP (CC50), Vero E6-eGFP cells with CP-100356, absence of virus, numeric bounds) [µM]","CC50 [3, 6] [µM]","CC50 [4, 7] [µM]"
COc1cccc2[nH]c(C(=O)N3C[C@@H]4CCC[C@@H]4[C@H]3C(=O)N[C@@H](C[C@@H]3CCNC3=O)C(=O)C(=O)N(C)Cc3ccccc3)cc12 [109B],> 10,> 10,> 10,> 50,–,–
"COc1cccc2[nH]c(C(=O)N3C[C@@H]4CCC[C@@H]4[C@H]3C(=O)N[C@@H](C[C@@H]3CCNC3=O)C(=O)C3CCCO3)cc12 (single isomer, unassigned) [69_A]",> 10,> 10,–,–,> 100,–
COc1cccc2[nH]c(C(=O)N3CC4CCCC4C3C(=O)NC(C=O)CC3CCNC3=O)cc12 (centres unmarked),> 10,> 10,–,–,–,–
COc1cccc2[nH]c(C(=O)N3C[C@@H]4CCC[C@@H]4[C@H]3C(=O)N[C@@H](C[C@@H]3CCNC3=O)C(=O)C(=O)N(C)Cc3ccccc3)cc12 [Compound 109A],> 10,> 10,> 10,–,–,> 10
COc1cccc2[nH]c(C(=O)N3C[C@@H]4CCC[C@@H]4[C@H]3C(=O)N[C@@H](C[C@H]3CC(C)(C)NC3=O)C(=O)COCc3ccccc3)cc12,> 10,> 10,> 10,–,–,> 10
"COc1cccc2[nH]c(C(=O)N3C[C@@H]4CCC[C@@H]4[C@H]3C(=O)N[C@@H](C[C@@H]3CCNC3=O)C(=O)C3CCCO3)cc12 (single isomer, unassigned) [69_B]",> 10,> 10,–,–,> 100,–

# Like-named read-outs stand apart in the source and are kept apart here.
